{
  "sequences": {"note": "Sequences of proteins named here, by UniProt entry; tags and fusion partners are left off.", "UniProt Q02108, whole entry": "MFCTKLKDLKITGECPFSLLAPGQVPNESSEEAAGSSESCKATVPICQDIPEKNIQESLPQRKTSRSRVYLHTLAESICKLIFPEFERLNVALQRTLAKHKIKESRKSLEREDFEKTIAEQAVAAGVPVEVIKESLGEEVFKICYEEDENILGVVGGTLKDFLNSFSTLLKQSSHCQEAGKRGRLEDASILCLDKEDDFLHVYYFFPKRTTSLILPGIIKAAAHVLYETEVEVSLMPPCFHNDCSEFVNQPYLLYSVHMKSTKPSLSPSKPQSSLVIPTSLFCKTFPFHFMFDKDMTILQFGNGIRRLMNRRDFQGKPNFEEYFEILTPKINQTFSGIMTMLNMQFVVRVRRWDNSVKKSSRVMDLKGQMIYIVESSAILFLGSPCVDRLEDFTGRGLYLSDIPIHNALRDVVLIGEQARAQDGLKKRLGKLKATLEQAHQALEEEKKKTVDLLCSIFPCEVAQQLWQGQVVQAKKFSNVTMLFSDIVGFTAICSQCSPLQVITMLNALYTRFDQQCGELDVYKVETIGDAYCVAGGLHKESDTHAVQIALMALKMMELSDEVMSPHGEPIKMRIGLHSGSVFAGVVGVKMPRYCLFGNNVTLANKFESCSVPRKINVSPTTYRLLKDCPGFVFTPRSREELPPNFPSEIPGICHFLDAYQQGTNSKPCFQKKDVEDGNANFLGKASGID", "UniProt Q02153, whole entry": "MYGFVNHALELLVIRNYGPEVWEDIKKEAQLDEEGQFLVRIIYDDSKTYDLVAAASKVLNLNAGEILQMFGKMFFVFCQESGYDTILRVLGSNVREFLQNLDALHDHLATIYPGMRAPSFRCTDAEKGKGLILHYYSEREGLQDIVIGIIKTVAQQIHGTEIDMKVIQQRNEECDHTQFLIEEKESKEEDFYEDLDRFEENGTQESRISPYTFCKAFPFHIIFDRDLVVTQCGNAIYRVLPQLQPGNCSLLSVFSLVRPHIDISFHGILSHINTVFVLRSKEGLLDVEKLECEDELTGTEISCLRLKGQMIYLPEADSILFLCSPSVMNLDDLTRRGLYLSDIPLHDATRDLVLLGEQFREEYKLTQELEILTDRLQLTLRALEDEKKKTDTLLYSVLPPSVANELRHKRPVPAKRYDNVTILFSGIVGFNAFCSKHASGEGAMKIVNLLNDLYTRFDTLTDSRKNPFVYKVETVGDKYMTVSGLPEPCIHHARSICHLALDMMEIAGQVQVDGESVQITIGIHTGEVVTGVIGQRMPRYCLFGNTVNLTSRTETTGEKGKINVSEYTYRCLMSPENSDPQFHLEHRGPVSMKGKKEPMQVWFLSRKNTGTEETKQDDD"},
  "source": "patent EP4725948A1",
  "about": "“PYRROLO[2,3-D]PYRIMIDIN-4-AMINE DERIVATIVE AND USE THEREOF IN MEDICINE” (Haisco Pharmaceutical Group Co., Ltd., priority 2023, dated 2024)",
  "molecular_target": "soluble guanylate cyclase (sGC) (Homo sapiens, UniProt Q02108+Q02153)",
  "assay": "In vitro detection experiment for soluble guanylate cyclase (sGC) activity (TR-FRET);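 note: enzyme reaction started with GTP and run for 60 min at 37°C, followed by a 60 min detection step at room temperature, with EC50 obtained by nonlinear curve fitting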",
  "details": "enzymatic agonism and/or activation of sGC; 1.5 nM sGC, 5 µM GTP, 100 µM DETA NONOate; tested form: TFA",
  "data": [
    {"smiles": "CC(C)(Cc1coc(C2(C)C(=O)Nc3nc(-n4c(=O)n(CC5CCCCC5)c5cc(F)ccc54)nc(N)c32)n1)C(=O)O", "note": "(stereo not shown)", "values": [
      {"measurement": "EC50", "value": "< 20", "unit": "nM"}
    ]}
  ]
}
